Test system: WT SARS-CoV-2 or OTS4-5-7-8 in VeroE6/TMPRSS2 cells
Assay type: cell-based

**Q.** For `O=c1[nH]cc(F)c(=O)[nH]1` [5-Fluorouracil], which “number of infectious virus particles in a TCID50 virus assay on adding a mutagen” value is on record?
**A.** reduced the number of infectious virus particles

From patent publication US20260124293A1 (priority 2022, published 2026)
